## OPERA 2.9 data: properties

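The numbers are reported measurements, compiled and curated for the OPERA QSAR suite. A listed value is a point estimate from one report or more. How each value was measured is not recorded, so precision varies. A value may pool stereoisomers or salt forms, and the file does not say which form was measured. Some entries may be limits or estimates that an upstream database listed as plain numbers.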

The melting point is given in degrees Celsius.
The boiling point refers to atmospheric pressure (760 mmHg), by the definition of the set.
The octanol-water partition coefficient is given as log10; larger values mean a more lipophilic compound.
Solubility in water is on a log10 molar scale (set defined at 25 °C).
Vapor pressure is log10 of mmHg; the set covers 15 to 30 °C, mostly 20 to 25 °C.
fu is the fraction unbound in human plasma, from 0 to 1.
Clint is human hepatic intrinsic clearance in µL/min per million cells; 0 means that no clearance was seen.

The entry for C[C@H](CC=O)CCCC(C)(C)O lists logP (octanol/water) 1.68 and log VP -2.387 (log10 mmHg). For OC(c1ccccc1)c1nc2ccccc2[nH]1 (configuration not stated) the data give melting point 176 °C and logP (octanol/water) 1.89 and water solubility -3.183 (log10 mol/L) and log VP -4.62 (log10 mmHg). CCC(Cc1ccc(C)cc1)(C(=O)c1ccc(N2CCOCC2)cc1)N(C)C (configuration not stated) has melting point 81.08 °C and water solubility -5.098 (log10 mol/L). Listed for COc1cc(N=Nc2ccc([N+](=O)[O-])cc2)ccc1N=Nc1ccc(O)cc1: melting point 225.7 °C and logP (octanol/water) 5.2 and water solubility -6.964 (log10 mol/L). For Cc1ccc(C(=O)O)c(Oc2ccccc2CC(=O)O)c1C the data give water solubility -4.222 (log10 mol/L) and log VP -10 (log10 mmHg).

The entry for O=C(c1ccccc1)c1ccc(OCC(O)COc2ccc(C(=O)c3ccccc3)c(O)c2)cc1O lists melting point 152.3 °C and logP (octanol/water) 4.19 and log VP -5.678 (log10 mmHg). The entry for O=C(O)CSc1nc2ccccc2s1 lists logP (octanol/water) 1.6 and water solubility -3.229 (log10 mol/L). CN[C@@H]1[C@@H](O[C@H]2O[C@H](CO)[C@@H](N)[C@H](O)[C@H]2O)O[C@H]2C[C@@H](N)[C@@H](O[C@H]3[C@H](O)[C@@H](O)[C@H](N)C[C@@H]3N)O[C@@H]2[C@@H]1O is reported with melting point 189 °C and water solubility -0.255 (log10 mol/L). For CCCCOC(=O)CCS the data give logP (octanol/water) 3.07 and water solubility -2.228 (log10 mol/L) and log VP -0.306 (log10 mmHg). Listed for CN(C)CCCN1c2ccccc2Sc2ccccc21: plasma fu 0.1054 and Clint 22.59 µL/min/10^6 cells.

Listed for CCN1CCN(C(=O)N[C@@H](C(=O)N[C@@H]2C(=O)N3[C@@H]2SC(C)(C)[C@@H]3C(=O)O)c2ccccc2)C(=O)C1=O: water solubility -3.304 (log10 mol/L) and log VP -7.911 (log10 mmHg). COC(=O)C1CCC(C(=O)OC)CC1 (configuration not stated) is reported with logP (octanol/water) 2.29 and log VP -1.767 (log10 mmHg). Listed for CCCCOCCOC(=O)c1ccccc1: melting point -57.5 °C and logP (octanol/water) 3.77 and water solubility -3.322 (log10 mol/L). For CCC[C@@H]1CC[C@@H](c2ccc(-c3cc(F)c(C(F)(F)Oc4cc(F)c(F)c(F)c4)c(F)c3)cc2)OC1 (relative stereo) the data give melting point 74.6 °C and water solubility -6.785 (log10 mol/L) and log VP -9.21 (log10 mmHg). The entry for Cl.OCCNc1ccc2c(c1)OCO2 lists melting point 163.5 °C and log VP -7.262 (log10 mmHg).

C/C=C/C(=O)C1CCC(C)(C)C=C1C (stereo partly drawn) has melting point -83.2 °C and bp 251.3 °C and logP (octanol/water) 3.59 and water solubility -3.208 (log10 mol/L) and log VP -1.353 (log10 mmHg). For O=C(OCc1ccccc1)c1ccccc1O the data give logP (octanol/water) 4 and water solubility -4.191 (log10 mol/L) and log VP -4.108 (log10 mmHg). For CC(CC(=O)NCCO)CC(C)(C)C (configuration not stated) the data give melting point -43 °C and water solubility -3.702 (log10 mol/L) and log VP -5.846 (log10 mmHg). The entry for CC(=O)OC(C)(C)Cc1ccccc1 lists melting point 30.3 °C and logP (octanol/water) 3.64 and water solubility -2.395 (log10 mol/L) and log VP -1.754 (log10 mmHg). Listed for O=C(N[C@@H](Cc1ccccc1)[C@@H](O)C(=O)N1C[C@@H](O)[C@@H](O)C1)c1cc2cc(Cl)ccc2[nH]1: plasma fu 0.0234 and Clint 2.09 µL/min/10^6 cells.

The entry for CC(S)C(=O)O (configuration not stated) lists logP (octanol/water) 1.15 and log VP -1.025 (log10 mmHg). For Cc1ccc(S(=O)(=O)Oc2ccc(Nc3cc(S(=O)(=O)[O-])c(N)c4c3C(=O)c3ccccc3C4=O)cc2)cc1.[Na+] the data give logP (octanol/water) 0.1 and water solubility -2.622 (log10 mol/L). For CCC1(C/C=C2\CCCc3cc(OC)ccc32)C(=O)CCC1=O the data give logP (octanol/water) 3.88 and water solubility -4.172 (log10 mol/L). Listed for O=C(O)COc1ccc2sc3ccccc3c(=O)c2c1: melting point 217.5 °C and water solubility -4.187 (log10 mol/L) and log VP -9.698 (log10 mmHg). The entry for CC=C(C(=CC)c1ccc(O)cc1)c1ccc(O)cc1 lists logP (octanol/water) 5.9 and water solubility -4.643 (log10 mol/L) and plasma fu 0.35.

For CCCC[C@H]1CO[C@H](c2ccc(-c3cc(F)c(C(F)(F)Oc4cc(F)c(F)c(F)c4)c(F)c3)c(F)c2)OC1 the data give melting point 70 °C and log VP -9.774 (log10 mmHg). Listed for CC(C)Cc1ccc(CC(C)C=O)cc1 (configuration not stated): melting point -4.4 °C and log VP -2.889 (log10 mmHg). The entry for C=CC(=O)OCC1COC(C)(CC)O1 (configuration not stated) lists bp 188 °C and logP (octanol/water) 1.92 and log VP -1.292 (log10 mmHg). Cc1cc(C)c(O)c(-c2cc(C)cc(C)c2O)c1 has melting point 137.2 °C and bp 341 °C and water solubility -5.44 (log10 mol/L). CCC(=O)OC1CCC(C(C)C)CC1 (configuration not stated) is reported with logP (octanol/water) 5.1 and water solubility -4.173 (log10 mol/L) and log VP -1.397 (log10 mmHg).

The entry for CC(C)(C)CC(C)(C)Nc1nc(Cl)nc(Cl)n1 lists melting point 78 °C and water solubility -6.048 (log10 mol/L).

Data: OPERA 2.9 data sets, kmansouri/OPERA on GitHub.